These results are taken from patent US20240139185A1, “COMPOUNDS THAT PARTICIPATE IN COOPERATIVE BINDING AND USES THEREOF” (Revolution Medicines, Inc., priority 2018, published 2024).

By UniProt entry, the sequences of proteins in these tests, tags left out.
UniProt P62937, whole entry: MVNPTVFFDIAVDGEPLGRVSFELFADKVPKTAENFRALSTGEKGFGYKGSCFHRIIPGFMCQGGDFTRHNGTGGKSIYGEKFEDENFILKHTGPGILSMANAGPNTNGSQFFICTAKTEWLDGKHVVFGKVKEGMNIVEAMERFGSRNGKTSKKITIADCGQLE

A value given as a limit tells only on which side of the number the result lay.

The target of one assay is cyclophilin A (CYPA) (Homo sapiens, UniProt P62937). Description: CYPA-compound binary complex formation by SPR. The conditions noted are these: read-out: CYPA Binding Affinity. The method in brief: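 Steady-state fit of SPR responses gave binding affinity. Analyte series: 50 μM downward, 2-fold, 10 points, running buffer HBS-P+ (0.05% Tween20, pH7.4, 2% DMSO), 60 s on/60 s off. Surface: biotinylated CypA-Avi captured at 4 μg/ml against a reference cell, regenerated with NaOH/guanidine.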
A general note: SPR reads the build-up and loss of mass on a sensor chip optically.

Another assay addresses BRAF-GTP-KRASWT complex (Homo sapiens, UniProt P01116+P62937). The assay is described as follows: KRAS-BRAF complex disruption TR-FRET with wild-type KRAS (G12C specificity). The note with it: read-out: BRAF-GTP-KRASWT complex disruption with CYPA (IC50). As to the method: In this example, TR-FRET was used to measure the compound-facilitated disruption of a KRAS-BRAF complex. A mixture of tagless Cyclophilin A, His6-KRAS G12C-GMP-PNP, and GST-BRAF RAS binding domain was added to a 384-well assay plate containing compounds of the invention and incubated for 3 hours. A mixture of Anti-His Eu-W1024 and anti-GST allophycocyanin was then added and the reaction was incubated for an additional 1.5 hours. TR-FRET signal was read on an EnVision microplate reader (Perkin Elmer, Ex 320 nm, Em 665/615 nm). Compounds that facilitate disruption of a KRAS_BRAF complex were identified as those eliciting a decrease in the TR-FRET ratio relative to DMSO control wells. To determine the presenter-dependence of the compound-mediated KRAS-BRAF complex disruption, Cyclophilin A was left out of the initial incubation (see Table 5). To determine G12C specificity of the compound-mediated KRAS-BRAF complex disruption, wild-type KRAS was used instead of G12C KRAS (see Table 5). […]
Experimental Protocol • 1. Use Mosquito to dispense 100 nL/well of compounds (varying concentration in […]) into 384-well black ProxiPlate to make assay-ready-plate (ARP). • 2. […] Read on EnVision (Ex: 320 nm; Em1: 615 nm; Em2: 665 nm). • 8. […]
(In TR-FRET formats the signal depends on donor and acceptor labels being close together.)

As for `CC(C)[C@@H](C(=O)N[C@H]1Cc2cc(O)cc(c2)-c2ccc3c(c2)n(c(=O)n3C2CC2)C[C@H](C)COC(=O)[C@@H]2CCCN(N2)C1=O)N(C)C(=O)C1CN(C(=O)CCl)C1`, the Kd at cyclophilin A (CYPA) is 5 to 15 µM. For the same compound, on BRAF-GTP-KRASWT complex, the IC50 – broadly, the concentration that inhibits the measured activity by half – is above 30 µM.

As to `CC(C)[C@@H](C(=O)N[C@H]1Cc2cc(O)cc(c2)-c2ccc3c(c2)N(C[C@H](C)COC(=O)[C@@H]2CCCN(N2)C1=O)CC3(C)/C=C/C#N)N(C)C(=O)C1CN(C(=O)CCl)C1` (single isomer, unassigned) [221], the Kd on cyclophilin A (CYPA) is below 5 µM. At BRAF-GTP-KRASWT complex, the IC50 is above 30 µM.
